Results published in patent US8026218B2, “Bifunctional analgesic compounds for opioid receptor agonists and neurokinin-1 receptor antagonists” (The University of Arizona, priority 2006, dated 2011).

The chains behind the UniProt entries cited, without tags or fusion partners.
UniProt P33535, whole entry: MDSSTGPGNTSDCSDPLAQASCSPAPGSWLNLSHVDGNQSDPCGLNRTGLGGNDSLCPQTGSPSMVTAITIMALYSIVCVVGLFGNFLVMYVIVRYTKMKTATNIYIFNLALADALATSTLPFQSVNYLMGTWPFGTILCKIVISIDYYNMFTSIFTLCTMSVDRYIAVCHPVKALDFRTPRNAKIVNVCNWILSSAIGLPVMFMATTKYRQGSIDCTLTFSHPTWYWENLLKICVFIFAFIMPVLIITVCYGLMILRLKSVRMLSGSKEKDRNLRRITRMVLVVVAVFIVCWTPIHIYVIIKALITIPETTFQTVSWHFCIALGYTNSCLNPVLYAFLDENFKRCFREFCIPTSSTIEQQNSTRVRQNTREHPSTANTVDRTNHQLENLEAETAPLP
UniProt P14600, whole entry: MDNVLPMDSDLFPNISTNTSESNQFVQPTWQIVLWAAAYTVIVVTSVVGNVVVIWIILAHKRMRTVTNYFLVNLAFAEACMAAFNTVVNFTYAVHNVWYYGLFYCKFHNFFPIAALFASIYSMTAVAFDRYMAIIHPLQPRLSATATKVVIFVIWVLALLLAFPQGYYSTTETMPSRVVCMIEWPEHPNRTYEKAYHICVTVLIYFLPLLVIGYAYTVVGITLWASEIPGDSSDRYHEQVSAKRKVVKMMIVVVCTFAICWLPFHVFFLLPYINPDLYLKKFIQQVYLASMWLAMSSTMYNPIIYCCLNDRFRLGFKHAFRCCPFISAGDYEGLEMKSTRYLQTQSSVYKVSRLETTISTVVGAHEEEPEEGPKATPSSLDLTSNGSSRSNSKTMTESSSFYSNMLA

Experiments:
[1] = biological target: T1, rat μ opioid receptors (rMOR) (Rattus norvegicus, UniProt P33535); test: Radioligand competition binding, [3H]DAMGO, rMOR membranes
T1 construct: expressed in transfected cells; host or cells: HN9.10 neuroblastoma cell line, pCDNA3, neomycin-selected clones

rat NK1 (rNK1) receptor = biological target: T2, rat NK1 (rNK1) receptor (Rattus norvegicus, UniProt P14600); test: Radioligand competition binding, [3H]substance P, rNK1/CHO membranes; conditions: Affinity rNK1 (Ki; nM), Table 39
T2 construct: expressed in transfected cells; host or cells: CHO (rNK-1/CHO cell line from Dr. James Krause)

Structure (SMILES)	IC50 [1] [nM]	Ki (rat NK1 (rNK1) receptor) [nM]
CC(C)C[C@H](NC(=O)[C@@H]1CCCN1C(=O)[C@H](Cc1ccccc1)NC(=O)CNC(=O)[C@@H](C)NC(=O)[C@@H](N)Cc1ccc(O)cc1)C(=O)N[C@@H](Cc1c[nH]c2ccccc12)C(=O)NCc1ccccc1 [TY008, H-Tyr-DAla-Gly-Phe-Pro-Leu-Trp-NH-Bzl]	1.26	
CCCC[C@H](NC(=O)[C@H](Cc1ccccc1)NC(=O)CNC(=O)[C@@H](C)NC(=O)[C@@H](N)Cc1ccc(O)cc1)C(=O)N[C@@H](COC1O[C@H](CO)[C@@H](O)[C@H](O)[C@H]1O)C(=O)N[C@@H](CC(C)C)C(=O)N[C@@H](Cc1c[nH]c2ccccc12)C(=O)NCc1cc(C(F)(F)F)cc(C(F)(F)F)c1 (some centres unmarked) [TY044]		23.5
